Experiment [1] has as its target T1, horse serum butyrylcholinesterase (BChE) (Equus caballus, UniProt P81908).
T1 construct: human recombinant AChE (hAChE), and horse serum BChE; purchased Sigma-Aldrich; host or cells: horse serum
Briefly: Inhibition of horse serum butyrylcholinesterase (modified Ellman method). To be noted: pH 7.4, 25 °C, 3 as acetate salt. Type of experiment: biochemical. The procedure: (§1) The inhibition of cholinesterase activity was determined using a modification of the Ellman method, which was adapted for microtiter plates. Stock solutions of 3, 7, and 8 (2 mg/mL) were prepared in pure EtOH. […] Stock solutions of the potential inhibitors and the positive controls were added to the microtiter plate wells and progressively diluted in 100 mM potassium phosphate buffer (pH 7.4) to a final volume of 50 μL. Then, 100 μL acetylthiocholine chloride (1 mM) and 5,5′-dithiobis-2-nitrobenzoic acid (0.5 mM) in 100 mM potassium phosphate buffer (pH 7.4) was added into the microtiter plate wells. The cholinesterases that were used (eeAChE, hAChE, and BChE; all from Sigma-Aldrich, St. Louis, MO, USA) were dissolved in 100 mM potassium phosphate buffer (pH 7.4) to a final concentration of 0.0075 U/mL. Each cholinesterase solution (50 μL) was added into the microtiter plate wells to start the reaction, which was followed spectrophotometrically at 405 nm at 25 °C over 5 min using a kinetic microplate reader (Dynex Technologies Inc., Chantilly, VA, USA). Blank reactions without inhibitors were run with the appropriate dilutions of EtOH, and the readings were corrected according to the corresponding blanks. Each measurement was repeated at least three times. […] The data were analyzed using the OriginPro software (OriginPro 2021 (9.8), OriginLab Corporation, Northampton, MA, USA).

Protein sequences, listed by entry. Tags and fused reporters are not part of them. Residues count along the entry.
UniProt P81908, whole entry: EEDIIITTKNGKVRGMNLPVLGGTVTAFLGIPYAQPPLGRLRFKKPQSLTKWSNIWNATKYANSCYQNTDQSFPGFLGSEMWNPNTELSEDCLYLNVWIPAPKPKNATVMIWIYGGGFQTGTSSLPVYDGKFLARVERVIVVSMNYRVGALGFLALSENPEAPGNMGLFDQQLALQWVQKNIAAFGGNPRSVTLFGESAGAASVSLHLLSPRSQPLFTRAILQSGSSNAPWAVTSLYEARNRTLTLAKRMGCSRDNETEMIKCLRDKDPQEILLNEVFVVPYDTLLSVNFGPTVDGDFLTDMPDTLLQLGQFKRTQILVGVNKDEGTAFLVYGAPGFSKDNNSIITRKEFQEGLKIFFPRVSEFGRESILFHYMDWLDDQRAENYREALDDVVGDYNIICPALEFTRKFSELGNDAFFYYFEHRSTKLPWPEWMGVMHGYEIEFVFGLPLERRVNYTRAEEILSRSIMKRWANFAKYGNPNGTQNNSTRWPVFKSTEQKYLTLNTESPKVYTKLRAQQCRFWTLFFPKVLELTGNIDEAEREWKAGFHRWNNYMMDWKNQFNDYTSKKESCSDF
UniProt O42275, 24-633: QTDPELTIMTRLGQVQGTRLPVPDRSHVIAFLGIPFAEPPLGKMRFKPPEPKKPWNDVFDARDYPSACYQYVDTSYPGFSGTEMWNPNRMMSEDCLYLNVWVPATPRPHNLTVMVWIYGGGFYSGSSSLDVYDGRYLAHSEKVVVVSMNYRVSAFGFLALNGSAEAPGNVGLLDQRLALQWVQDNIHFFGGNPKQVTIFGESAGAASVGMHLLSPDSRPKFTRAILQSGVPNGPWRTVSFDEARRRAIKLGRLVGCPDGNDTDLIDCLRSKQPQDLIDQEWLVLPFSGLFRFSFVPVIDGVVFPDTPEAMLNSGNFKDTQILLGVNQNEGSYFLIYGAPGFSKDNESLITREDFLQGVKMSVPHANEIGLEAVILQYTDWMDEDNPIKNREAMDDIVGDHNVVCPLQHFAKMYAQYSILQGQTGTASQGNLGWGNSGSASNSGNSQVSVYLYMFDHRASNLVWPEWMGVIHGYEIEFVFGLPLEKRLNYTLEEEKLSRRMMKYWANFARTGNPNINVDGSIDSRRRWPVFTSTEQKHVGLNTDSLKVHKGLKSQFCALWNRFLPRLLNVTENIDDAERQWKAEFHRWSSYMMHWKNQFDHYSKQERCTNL

Experiment [2] has as its target T2, electric eel acetylcholinesterase (eeAChE) (Electrophorus electricus, UniProt O42275).
T2 construct: purchased Sigma-Aldrich
The experiment is described as follows: Inhibition of electric eel acetylcholinesterase (modified Ellman method). The following applies: pH 7.4, 25 °C, 3 as acetate salt. Type of experiment: biochemical. The protocol:
as §1
(In general: In Ellman's method for cholinesterases, released thiocholine reacts with DTNB.)

Experiment [3] addresses T2, electric eel acetylcholinesterase (eeAChE). To be noted: discorhabdin G as trifluoroacetate (TFA) salt; ref Botić et al. [5]; cited from earlier work.
Experiment [4] addresses T1, horse serum butyrylcholinesterase (BChE). To be noted: discorhabdin G as trifluoroacetate (TFA) salt; ref Botić et al. [5]; cited from earlier work.

Read-outs that look alike come from different tables or passages of the source.

As a reminder, the IC50 is the point on the concentration scale where inhibition reaches its midpoint.

For `CNC(=O)Oc1ccc2c(c1)[C@]1(C)CCN(C)[C@@H]1N2C` [Physostigmine salicylate, reference compound], the IC50 was 14.5 µM in experiment [1], 7.3 µM in experiment [2], 3 µM in experiment [3] and 28.5 µM in experiment [4].

The values above are taken from publication PMC11051419, “Structural Insights into the Marine Alkaloid Discorhabdin G as a Scaffold towards New Acetylcholinesterase Inhibitors” (Marine Drugs, 2024).
